We go through two substances from patent US5780265.

Targets include Human Factor Xa (human) (UniProt P00742); Human thrombin (human) (UniProt P00734); Human plasmin (human) (UniProt P00747).
Test [1] concerns the target Human Factor XIa (human) (UniProt P03951). The experiment in a line: enzyme inhibition of FXIa, chromogenic substrate, fit to the tight-binding equation (apparent Ki*).
The target in test [2] is Human plasma kallikrein (human) (UniProt P03952).
Test [3] addresses Human activated protein C (human) (UniProt P04070).
The target of test [4] is Human Factor XIIa (human) (UniProt P00748).
The target of test [5] is tissue factor-Factor VIIa (human) (UniProt P13726).
Test [6] concerns the target Human Factor XIa (human) (UniProt P03951).

In the case of “BPTI, bovine basic pancreatic trypsin inhibitor (other; other documents disagree on this pair)”, the Ki with Human Factor XIa (human) [1] is > 300 nM.
For “BPTI, bovine basic pancreatic trypsin inhibitor”, the fraction of remaining proteolytic activity at 100 nM inhibitor (fraction of uninhibited rate) was 0.34 in test [2]; 0.99 with Human Factor Xa (human); 0.84 in [3]; 0.97 with Human thrombin (human); 1.01 in [4]; 1.01 in test [5]. The fraction of remaining proteolytic activity at 100 nM inhibitor (fraction of uninhibited rate) in the test with Human plasmin (human) was 0; with Human Factor XIa (human) [6], 0.67.
